{"source": "patent US20250281460A1", "about": "“PEGYLATED BILIRUBIN FOR THE TREATMENT OF […], OBESITY, FATTY LIVER DISEASE, CARDIOVASCULAR DISEASES AND TYPE II DIABETES” (The University of Toledo, priority 2019, published 2025)", "target": "T1, PPARα (Mus musculus, UniProt P23204)", "T1 sequence (P23204 1-468)": "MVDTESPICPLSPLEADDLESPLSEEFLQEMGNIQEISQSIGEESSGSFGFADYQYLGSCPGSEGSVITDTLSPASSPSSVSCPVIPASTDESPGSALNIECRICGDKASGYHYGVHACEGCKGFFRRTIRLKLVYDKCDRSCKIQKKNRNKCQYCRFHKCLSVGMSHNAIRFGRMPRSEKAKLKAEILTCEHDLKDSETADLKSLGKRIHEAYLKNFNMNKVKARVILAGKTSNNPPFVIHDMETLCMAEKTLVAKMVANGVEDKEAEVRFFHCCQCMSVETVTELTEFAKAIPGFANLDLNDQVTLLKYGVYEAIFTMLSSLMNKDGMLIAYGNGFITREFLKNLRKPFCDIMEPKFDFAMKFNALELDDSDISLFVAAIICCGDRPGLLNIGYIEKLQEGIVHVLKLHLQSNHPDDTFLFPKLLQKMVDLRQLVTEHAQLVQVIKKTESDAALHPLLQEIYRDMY", "procedure": "Cells were crosslinked with formaldehyde with a final concentration of 1% in media while shaking at room temperature for 10 min. The activity of the formaldehyde was quench with the addition of glycine while rocking for 5 min at room temperature. Cells were washed twice with 1×PBS, collected into a 15 ml conical tube and spun down at 3,000 rpm for 5 min. Pellets were rapidly frozen on dry ice ethanol mix and stored at −80° C. for a minimum of 1 hour or immediately resuspended in a series of lysis buffers (see table for ChIP buffer table) containing protease inhibitors for 5 min. Cells were sonicated for approximately 8 min per sample. The lysates were centrifuged for 10 min at 4° C. at 13,000 rpm. The lysates were pre-cleared in BSA/Salmon sperm blocked beads rotating for 2 hours at 4° C. […] Lysates were then incubated with Agarose A beads and rotated for 4 hours at 4° C. The samples were then washed with a ChIP washing buffer (see table for ChIP buffer table) 5 times. The protein was eluted in an Elution buffer at 65° C. for 30 min shaking every 2 min. The eluted samples were transferred to another tube and incubated at 65° C. overnight to reverse crosslinking. The samples were purified after 1-hour incubation with Proteinase K at 55° C. with a isopropanol/chloroform/ethanol mixture. DNA was quantified on a NanoDrop 2000 spectrophotometer (Thermo Fisher Scientific, Wilmington, DE). PCR amplification of the genomic DNA was performed by quantitative real-time PCR using TrueAmp SYBR Green qPCR SuperMix (Advance Bioscience). The thermocycling protocol consisted of 2 min at 50° C. and then 10 min at 95° C., 48 cycles of 30 sec at 95° C., 1 min at 65° C.", "data": [{"smiles": "Cc1cccc(Nc2cc(Cl)nc(SCC(=O)O)n2)c1C", "note": "[WY 14,643, WY-14,643]", "values": [{"measurement": "PPARα occupancy at the 13K enhancer of the Ucp1", "setting": "50 μM, 24 hours", "value": "stimulated"}, {"measurement": "PPARα occupancy at the −3306 to −3109 region of the Cpt1 promoter", "setting": "50 μM, 24 hours", "value": "significantly higher"}, {"measurement": "occupancy of PPARα at 13K enhancer of the Ucp1", "setting": "BAT cells", "value": "increased"}, {"measurement": "occupancy of PPARα at the Cpt1 promoter", "setting": "BAT cells", "value": "increased"}, {"measurement": "occupancy of PPARα at the enhancer region of the Adrb3 promoter", "setting": "BAT cells", "value": "did not increase"}]}]}
